Results on one compound are retold here after patent publication US6153614A, “Piperazinyl pyrimidine dione compounds selective for adrenoceptors” (Abbott Laboratories, priority 1998, dated 2000).

For the experiment, the target named is T1, α1A adrenoceptor (rat submaxillary gland) (Rattus norvegicus, UniProt P43140).
T1 construct: from tissue; host or cells: rat submaxillary gland membranes
T1 sequence (P43140 1-466): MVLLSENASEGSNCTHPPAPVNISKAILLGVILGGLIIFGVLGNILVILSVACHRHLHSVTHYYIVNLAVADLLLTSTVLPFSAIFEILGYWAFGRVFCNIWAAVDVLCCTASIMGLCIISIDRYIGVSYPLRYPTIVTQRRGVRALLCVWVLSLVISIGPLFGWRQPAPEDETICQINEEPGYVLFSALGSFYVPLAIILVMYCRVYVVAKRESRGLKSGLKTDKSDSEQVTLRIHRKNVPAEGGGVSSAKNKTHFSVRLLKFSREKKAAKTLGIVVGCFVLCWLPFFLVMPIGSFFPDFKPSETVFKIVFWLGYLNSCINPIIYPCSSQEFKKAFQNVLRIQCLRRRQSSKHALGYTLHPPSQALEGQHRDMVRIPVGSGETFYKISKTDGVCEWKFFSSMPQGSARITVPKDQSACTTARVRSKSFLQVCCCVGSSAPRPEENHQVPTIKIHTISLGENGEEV
Nature of the experiment: Radioligand binding α1A (rat submaxillary gland), [3H]-prazosin. Particulars: [3H]prazosin 0.2 nM. How it is done:
Representative compounds of the invention were evaluated for α-adrenoceptor binding affinity in vitro using [^3 H]-prazosin as the radioligand and two cloned α1 adrenoceptors expressed in LTK cells: α1b (hamster), and α1d (rat). Additionally, binding affinity against the pharmacologically defined α1A adrenoceptor (rat submaxillary gland) was measured.
On the fifth day of culture, growth medium was removed from cells grown in the roller bottles, and the cells were washed twice with PBS (Sigma, 120 mM NaCl, 2.7 mM KCl, 10 mM Na2 HPO4 --NaH2 PO4, pH=7.4). Cells were detached from the roller bottles by incubating for 15 minutes at 37° C. in a Tris-EDTA solution (10 mM Tris, 100 mM NaCl, 1 mM EDTA, pH=7.4). […]
Briefly, plastic Bioblocks™ (DBM Scientific, Valencia, Calif.) were incubated at 25° C. for 50 minutes with […] of membrane homogenate (diluted with an additional 96 volumes (for cloned adrenoceptors, 12 volumes for submaxillary gland)) in 50 mM Tris-HCl buffer (pH=7.7 at the time of assay), […] of [^3 H]prazosin (0.2 nM final concentration, 75-85 Ci/mmole, DuPont-NEN Corp., Boston, Mass.), and […] of either water (for total binding) or […] phentolamine (final concentration, for non-specific binding). […] Radioactivity was determined by standard liquid scintillation techniques.

The structures appear in SMILES notation.

For orientation: Ki means a dissociation constant, usually derived from enzyme kinetics or from competition with a known ligand. A higher Ki goes with lower affinity.

As to `COc1cc2nc(N3CCN(C(=O)C4CCCO4)CC3)nc(N)c2cc1OC` (stereo not shown) [terazosin], the Ki is 0.823 nM.
